Columns and labels:
[1] = Inhibition of P-glycoprotein
[2] = target: ATP-dependent translocase ABCB1 (Homo sapiens, UniProt P08183); assay: Inhibition of human MDR1 expressed in MDCK2 cells assessed as enhancement of Calcein-AM uptake treated 30 mins before Calcein-AM challenge measured after 20 mins

Sequences of proteins named here, by UniProt entry; tags and fusion partners are left off.
UniProt P08183, whole entry: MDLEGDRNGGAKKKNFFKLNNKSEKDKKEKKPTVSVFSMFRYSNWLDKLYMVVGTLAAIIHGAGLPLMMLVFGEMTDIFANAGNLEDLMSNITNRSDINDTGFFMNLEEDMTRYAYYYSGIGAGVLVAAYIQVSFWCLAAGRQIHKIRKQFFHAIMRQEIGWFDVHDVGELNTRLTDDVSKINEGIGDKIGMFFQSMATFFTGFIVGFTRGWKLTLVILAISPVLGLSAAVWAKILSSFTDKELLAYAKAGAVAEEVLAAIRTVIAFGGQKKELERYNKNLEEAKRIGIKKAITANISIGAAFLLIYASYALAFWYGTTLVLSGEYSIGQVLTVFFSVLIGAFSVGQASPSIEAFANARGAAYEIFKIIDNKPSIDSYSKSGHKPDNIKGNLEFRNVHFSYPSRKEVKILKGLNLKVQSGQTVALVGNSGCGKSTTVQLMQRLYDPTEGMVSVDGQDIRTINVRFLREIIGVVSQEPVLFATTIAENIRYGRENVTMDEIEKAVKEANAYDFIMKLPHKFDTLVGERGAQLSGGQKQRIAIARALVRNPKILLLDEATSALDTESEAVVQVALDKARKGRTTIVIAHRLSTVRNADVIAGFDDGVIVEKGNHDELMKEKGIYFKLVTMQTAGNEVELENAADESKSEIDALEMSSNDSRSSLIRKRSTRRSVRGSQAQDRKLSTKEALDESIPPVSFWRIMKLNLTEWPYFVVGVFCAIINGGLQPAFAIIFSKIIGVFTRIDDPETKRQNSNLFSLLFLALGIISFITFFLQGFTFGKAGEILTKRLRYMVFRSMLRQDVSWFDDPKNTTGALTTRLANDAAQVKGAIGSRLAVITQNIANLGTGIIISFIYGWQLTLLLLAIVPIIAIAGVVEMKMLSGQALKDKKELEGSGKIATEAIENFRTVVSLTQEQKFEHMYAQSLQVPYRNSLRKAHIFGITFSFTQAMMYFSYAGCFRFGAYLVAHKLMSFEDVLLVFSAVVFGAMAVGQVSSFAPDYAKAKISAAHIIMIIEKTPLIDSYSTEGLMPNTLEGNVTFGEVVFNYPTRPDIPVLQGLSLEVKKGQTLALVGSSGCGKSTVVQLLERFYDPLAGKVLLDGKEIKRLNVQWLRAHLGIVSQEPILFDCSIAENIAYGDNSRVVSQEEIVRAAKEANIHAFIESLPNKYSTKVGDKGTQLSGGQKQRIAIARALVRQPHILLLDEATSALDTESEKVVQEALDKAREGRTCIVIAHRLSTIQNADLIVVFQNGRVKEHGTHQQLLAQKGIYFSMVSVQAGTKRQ

Molecule `O[C@@H](COc1cccc2ncccc12)CN1CCN([C@@H]2c3ccccc3[C@@H]3[C@H](c4ccccc42)C3(Cl)Cl)CC1` has an IC50 [1] of 400 nM and an IC50 [2] of 930 nM.
